# Yeast mating assay 2: variants of the scFv Ab-91

Binding partner: SARS-CoV-2 spike HR2 peptide, sequence PDVDLGDISGINAS.

Ab-91 is the parent antibody, in scFv form: VL, then the linker GGGGSGGGGSGGGGS, then VH. The light chain is unchanged in all variants.
VL: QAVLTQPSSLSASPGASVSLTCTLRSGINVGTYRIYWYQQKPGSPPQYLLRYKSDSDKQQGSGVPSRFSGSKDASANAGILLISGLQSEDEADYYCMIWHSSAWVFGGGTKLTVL
VH: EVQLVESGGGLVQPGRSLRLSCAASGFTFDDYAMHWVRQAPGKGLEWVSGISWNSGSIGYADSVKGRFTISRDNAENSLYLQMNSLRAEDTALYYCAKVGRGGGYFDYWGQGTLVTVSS

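In library AAYL51, one, two or three CDR residues were substituted; doubles and triples were drawn at random. The scFvs were displayed on barcoded MATa yeast, the peptide on MATalpha yeast. Pairs that bind mate more often; barcode pairs of the diploids are counted by sequencing. Read counts were normalised to the haploid input and turned into Kd by a linear fit to BCL2-family pairs of known affinity, for each replicate. There are three technical replicates.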

Substitutions are numbered in sequence along the VH above, starting at 1 (not Kabat).
Numbers give log10(Kd / nM), so 0 is 1 nM and 3 is 1 µM. Smaller is tighter.
A pair that was not seen in that replicate is written "nd"; this usually means weak binding, but a binder can also be missed.

T28H A33Y: 3.63, nd, nd (controls 1 of 9).
S52M V64K Y105D: nd, 5.43, nd (controls 1 of 9).
I51K S52I Y105T: nd, nd, nd (controls 0 of 9).
G56T V64R Y108V: nd, nd, nd (controls 1 of 9).
A33D G59W F106S: nd, nd, nd (controls 1 of 9).
T28G S52H D107Y: nd, nd, nd (controls 1 of 9).
N54A I58N G103Q: nd, nd, nd (controls 1 of 9).
N54Q S55K V64H: nd, nd, nd (controls 0 of 9).
D30Q S55Y Y108C: nd, nd, nd (controls 0 of 9).
G26Q F27L A61W: nd, nd, 4.37 (controls 1 of 9).
N54Q G56M G100M: nd, nd, nd (controls 0 of 9).
M34A Y60I G103L: 4.08, nd, nd (controls 4 of 9).
D62R G102Q D107V: 4.89, nd, nd (controls 0 of 9).
I51R S52G V64G: nd, nd, nd (controls 1 of 9).
Y60K A61D: nd, nd, nd (controls 0 of 9).
F27Q Y32R Y108E: 3.21, nd, nd (controls 0 of 9).
H35Y G103A Y108W: nd, nd, nd (controls 0 of 9).
G26E D62W V64F: 4.59, 6.36, nd (controls 1 of 9).
I51H D62P K65H: nd, nd, nd (controls 0 of 9).
T28E D30E H35M: 3.98, nd, nd (controls 0 of 9).
M34K V64P G103S: 5.56, 4.81, 5.14 (controls 6 of 9).
I58A D62K F106Q: 2.67, 2.80, nd (controls 0 of 9).
V99W G102F F106S: nd, nd, nd (controls 2 of 9).
T28M H35A V64E: nd, nd, nd (controls 0 of 9).
F27G G100I G104C: nd, nd, nd (controls 0 of 9).
I58K Y60D G103D: nd, nd, nd (controls 1 of 9).
D30Q S57T F106C: 3.17, 3.05, 3.04 (controls 6 of 9).
T28K A61P R101T: 3.08, 3.85, 4.67 (controls 4 of 9).
D30K M34T S57D: nd, 4.84, 5.58 (controls 6 of 9).
T28P G59E A61Q: nd, nd, nd (controls 0 of 9).
K65N V99Y D107P: 3.85, 3.77, 3.35 (controls 2 of 9).
S57W V99R Y108L: nd, nd, nd (controls 0 of 9).
D30H I51K S57D: nd, nd, nd (controls 1 of 9).
H35I S63I G103C: 3.78, nd, nd (controls 0 of 9).
Y32L S52F D62L: 4.68, nd, 6.06 (controls 8 of 9).
F29D D31A: nd, nd, nd (controls 0 of 9).
S57P K65N Y105H: 4.77, 5.12, nd (controls 5 of 9).
T28S I58Y G59Y: nd, nd, nd (controls 1 of 9).
H35N I51T Y60Q: 4.28, nd, nd (controls 1 of 9).
A33W D62V K65E: nd, nd, 4.33 (controls 5 of 9).
G56S G102T: 4.97, 4.70, 4.69 (controls 6 of 9).

For reference, 2 entries of the list once more:

{"changes": "S52M V64K Y105D", "replicates, log10 nM": "nd, 5.43, nd", "signal with controls": "1/9"}
{"changes": "Y60K A61D", "replicates, log10 nM": "nd, nd, nd", "signal with controls": "0/9"}

Empty control strains, which show no peptide, gave a signal in 21% of pairings with library AAYL51; the median was 4.54 and 95% of these signals were weaker than 3.26. No background was subtracted. Also given: how often the same scFv was detected with the empty control strains.

Values reported by Engelhart et al. 2022, doi:10.1038/s41597-022-01779-4 (FLAb copy).